Values of other authors in patent US8802053B2 (Brookhaven Science Associates, LLC, priority 2009, dated 2014).

Sequences of proteins named here, by UniProt entry; tags and fusion partners are left off.
UniProt P11511, whole entry, species assumed: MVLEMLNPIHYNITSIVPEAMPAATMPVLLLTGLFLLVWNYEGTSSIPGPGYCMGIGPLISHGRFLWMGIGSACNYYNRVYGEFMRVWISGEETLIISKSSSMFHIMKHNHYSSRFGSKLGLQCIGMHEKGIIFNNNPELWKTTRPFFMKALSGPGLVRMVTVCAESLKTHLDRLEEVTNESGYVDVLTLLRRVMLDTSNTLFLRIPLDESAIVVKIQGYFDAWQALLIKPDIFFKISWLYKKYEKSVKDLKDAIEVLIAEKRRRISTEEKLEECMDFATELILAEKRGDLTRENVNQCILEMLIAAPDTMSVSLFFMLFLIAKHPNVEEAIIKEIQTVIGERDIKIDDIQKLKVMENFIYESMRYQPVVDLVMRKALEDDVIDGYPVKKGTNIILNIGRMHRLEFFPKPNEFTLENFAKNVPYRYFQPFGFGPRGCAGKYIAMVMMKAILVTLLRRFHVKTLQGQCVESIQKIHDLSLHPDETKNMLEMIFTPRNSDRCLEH

Biological target: aromatase (Homo sapiens, UniProt P11511)
Details: Wouters et al. (1990); cited from earlier work

Question: For `Cn1nnc2ccc([C@@H](c3ccc(Cl)cc3)n3cncn3)cc21` [(R)-vorozole], which activity of enantiomer is on record?
Answer: Its activity of enantiomer is “inactive”.
